From patent US8084467B2, “Pyrazole derivatives as cannabinoid receptor antagonists” (University of Connecticut, priority 2004, dated 2011)
Where two headings read alike, the source gives them in different places.

Sequences of proteins named here, by UniProt entry; tags and fusion partners are left off.
UniProt P47936, whole entry: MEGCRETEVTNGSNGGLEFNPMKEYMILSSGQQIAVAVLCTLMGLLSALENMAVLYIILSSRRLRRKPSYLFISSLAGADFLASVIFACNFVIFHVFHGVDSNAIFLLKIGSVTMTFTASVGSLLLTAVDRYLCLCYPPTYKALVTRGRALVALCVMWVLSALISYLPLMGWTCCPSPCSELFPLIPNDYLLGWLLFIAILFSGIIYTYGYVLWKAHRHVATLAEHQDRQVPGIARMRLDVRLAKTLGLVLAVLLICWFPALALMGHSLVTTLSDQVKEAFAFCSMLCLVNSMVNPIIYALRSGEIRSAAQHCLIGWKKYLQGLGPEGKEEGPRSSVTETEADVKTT
UniProt P20272, whole entry: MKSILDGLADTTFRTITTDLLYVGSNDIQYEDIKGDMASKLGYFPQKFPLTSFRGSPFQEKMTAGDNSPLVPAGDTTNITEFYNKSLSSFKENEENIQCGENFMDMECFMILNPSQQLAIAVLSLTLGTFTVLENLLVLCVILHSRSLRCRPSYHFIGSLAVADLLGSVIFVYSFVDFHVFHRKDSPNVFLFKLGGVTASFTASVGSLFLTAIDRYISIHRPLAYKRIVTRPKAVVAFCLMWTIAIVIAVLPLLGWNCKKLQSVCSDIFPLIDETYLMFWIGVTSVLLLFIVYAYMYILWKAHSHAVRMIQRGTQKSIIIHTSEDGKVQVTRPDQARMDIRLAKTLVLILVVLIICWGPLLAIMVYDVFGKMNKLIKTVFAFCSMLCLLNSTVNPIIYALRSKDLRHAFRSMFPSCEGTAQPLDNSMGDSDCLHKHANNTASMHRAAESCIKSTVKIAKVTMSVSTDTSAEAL

Assays:
CB2 receptor = CB2 receptor (Mus musculus, UniProt P47936); test: CB2 receptor binding, mouse spleen membranes, same manner as the CB1 binding assay; conditions: for selectivity CB2: ratio of CB1 Ki to CB2 Ki; for Ki: read-out: affinities Ki CB2, mouse spleen membranes, [3H] CP-55,940
CB1 cannabinoid receptor = CB1 cannabinoid receptor (Rattus norvegicus, UniProt P20272); test: CB1 receptor binding, rat forebrain membranes, [3H] CP-55,940 displacement
[1] = read-out: affinities Ki CB1, 0.8 nM [3H] CP-55,940

Compound	selectivity CB2 (CB2 receptor)	Ki (CB2 receptor)	Ki (CB2 receptor; listed as 9)	Ki (CB1 cannabinoid receptor; [1])	Ki (CB1 cannabinoid receptor; read-out: affinities Ki CB1, 0.8 nM [3H] CP-55,940, listed as 9)	Ki (CB2 receptor; listed as 12)	Ki (CB1 cannabinoid receptor; read-out: affinities Ki CB1, 0.8 nM [3H] CP-55,940, listed as 12)
Cc1c(C(=O)NC23CC4CC(CC(C4)C2)C3)nn(CCCCCF)c1-c1ccccc1	1.7	0.7 nM	0.682 nM	1.2 nM	1.25 nM	–	–
Cc1c(C(=O)NC23CC4CC(CC(C4)C2)C3)nn(CCCCCN=C=S)c1-c1ccccc1	11.6	0.5 nM	–	5.8 nM	–	0.507 nM	5.76 nM
